The results in this text go back to patent US7163920B2, “Peptide with osteogenic activity” (Ethicon, Inc., priority 2003, dated 2007).

In the assay the test system is Primary human osteoblasts. The experiment in a line: 3H-thymidine incorporation, proliferative response of human osteoblasts. The assay is classed as cell-based. The settings on record: Table 2 (Example 2); BMP-2 10 ng/ml. The procedure:
The effect of the peptide (CGGGRWCG, Cys-Gly-Gly-Gly-Arg-Trp-Cys-Gly (SEQ. ID NO: 1)) on the stimulation of osteoblast proliferation was assessed in a short-term assay via measurement of the amount of the nucleotide thymidine that was incorporated into newly synthesized DNA.
Primary human osteoblasts were trypsinized and cell counts determined. Cells were resuspended at a concentration of 0.5×10^5 cells/ml in growth medium [Dulbeccos Modified Eagles Medium (DMEM) 10% Fetal Bovine Serum (FBS), 100 units Penicillin and 50 μg/ml Streptomycin]. A 100 μl aliquot of cells was added to each well in a 96 well dish. Cells were allowed to adhere for 24 hours and then refed with DMEM containing 0.5% FBS for 24 hours. Thereafter, several concentrations (10, 100, 500 μg/ml final concentration) of peptide in DMEM containing 0.5% FBS were added to different wells in quadruplicate. These plates were incubated in a cell culture incubator at 37° C. 5% CO2 for 48 hours. […] Cells were lysed and the lysate was placed in scintillation fluid and the amount of thymidine incorporated was determined by beta counting (in Counts Per Minute, or CPM). […]
Experiments were performed comparing the stimulatory effect of the CGGGRWCG peptide (SEQ. ID NO: 1) to BMP-2. The experiments were set up as described for Example 1, with proliferation assessed by measurement of thymidine incorporation into newly synthesized DNA. […]

B1: BMP-2: bone morphogenic protein used as comparator for osteoblast proliferation (protein, UniProt P12643 283-396, looked up)
Bone morphogenetic protein 2: QAKHKQRKRLKSSCKRHPLYVDFSDVGWNDWIVAPPGYHAFYCHGECPFPLADHLNSTNHAIVQTLVNSVNSKIPKACCVPTELSAISMLYLDENEKVVLKNYQDMVVEGCGCR
Regarding B1, the “3H-Thymidine Incorporation Into Osteoblasts” value was 4232 +/− 155 CPM.
